The values that follow come from patent US20250367314A1, “LINKER-PAYLOAD, AN ANTIBODY-DRUG CONJUGATE MADE THEREBY AND USES THEREOF” (TAIRX, INC., priority 2024, published 2025).

Marks after values point to notes of the source that are not given here.

Series [1] concerns BT-474 human breast cancer xenograft. Kind of series: BT-474 human breast cancer xenograft model in BALB/c nude mice (linker comparison). It is filed as in vivo. (In general: Xenograft models place foreign cells or tissue in a host animal.)
In series [2] the test system is MDA-MB-468 human breast cancer xenograft. Kind of series: MDA-MB-468 human breast cancer xenograft model in BALB/c nude mice. To be noted: for death or clinical signs: during the study; for % TGI: 5 mg/kg IV, QW for 2 weeks.
For series [3], the system named is BT-474 human breast cancer xenograft. Kind of series: BT-474 human breast cancer xenograft model in NOD-SCID mice (dose range study of CVM-ADC01). To be noted: for % TGI: 5 mg/kg IV, QW for 3 weeks. Type of series: in vivo.

For “CVM-ADC01: Trastuzumab (Her2 Ab) conjugated with Compound 15 (DBCO-PEG6-va-PAB-DMEA-CVM-1125), DAR 3.6”, the “body weight (BW) loss” value in series [1] (5 mg/kg IV, QW for 3 weeks, FIG. 1A) is on record as “no significant BW loss”. Besides, the “unscheduled animal death or clinical signs” value in series [1] (5 mg/kg IV, QW for 3 weeks, during the study) is reported as “No unscheduled animal death or clinical signs”. For the same substance, the “anti-tumor efficacy compared to vehicle group (significance)” value in series [1] (5 mg/kg, Day 14 to Day 27) was “significant anti-tumor efficacy”. The “anti-tumor efficacy (in words)” value in series [1] (5 mg/kg, Table 11 and FIG. 1B) is reported as “can provide an anti-tumor efficacy”. Moreover, the “% TGI” value in series [1] (D4, 5 mg/kg IV, QW for 3 weeks) is listed as 7.7%; in series [1] (D7, 5 mg/kg IV, QW for 3 weeks) it was 22.1%; in series [1] (D11, 5 mg/kg IV, QW for 3 weeks), 31.8%; in series [1] (D14, 5 mg/kg IV, QW for 3 weeks), 45.2* %; in series [1] (D25, 5 mg/kg IV, QW for 3 weeks) it was 69.2** %; in series [1] (D27, 5 mg/kg IV, QW for 3 weeks), 71.1** %.

Regarding “CVM-ADC10: Cetuximab (EGFR Ab) conjugated with Compound 15 (DBCO-PEG6-va-PAB-DMEA-CVM-1125), DAR 3.41”, the “anti-tumor efficacy compared to Cetuximab group (significance)” value in series [2] (5 mg/kg, Day 14 (P<0.01) to Day 21 (P=0.014)) is recorded as “significant anti-tumor efficacy”. The “death or clinical signs” value in series [2] (5 mg/kg) was “no death or clinical signs”. Moreover, the “% TGI” value was 2.64% in series [2] (D4); 6.28% in series [2] (D7); 14.23* % in series [2] (D11); 35.61** % in series [2] (D14); 45.96** % in series [2] (D18); 52.92** % in series [2] (D21). The “% TGI” value is recorded as 56.68** % in series [2] (D25) and 58.75% in series [2] (D27).

For the substance Cetuximab [reference compound], the “death or clinical signs” value in series [2] (5 mg/kg) was “no death or clinical signs”. Also, the “% TGI” value is −2.15% in series [2] (D4); 3.32% in series [2] (D7); 4.34% in series [2] (D11); 6.64% in series [2] (D14); 7.50% in series [2] (D18); 18.77% in series [2] (D21). Moreover, the “% TGI” value in series [2] (D25) stood at 26.87%; in series [2] (D27), 33.01%.

Regarding “Herceptin: HER2-specific humanized antibody, reference drug [reference compound]”, the “antitumor efficacy compared to Vehicle control (significance)” value in series [3] (5 mg/kg, Day 28) is “not statistically significant”. Besides, the “% TGI” value is recorded as 8.7% in series [3] (D 3); 13.6% in series [3] (D 5); 13.8% in series [3] (D7); 28.5% in series [3] (D11); 39.6% in series [3] (D14); 65.1% in series [3] (D 19).
